Values quoted from earlier work, collected in patent EP1222183B1, “BENZOPYRAN DERIVATIVES” (priority 1999, dated 2001).

System: diastolic blood pressure
Conditions: dog, i.v., dose lowering diastolic blood pressure by 25%; data from Leonardi A. et al. 1997; cited from earlier work

## COc1cc2nc(N3CCN(C(=O)C4CCCO4)CC3)nc(N)c2cc1OC (stereo not shown) [Terazosin, terazosin]
  DBP ED25: 0.0614 mg/kg
